Assay results: ChEMBL document CHEMBL4385610, “Selective Inhibition of Histone Deacetylase 10: Hydrogen Bonding to the Gatekeeper Residue is Implicated” (J Med Chem, 2019)

Assays:
[1] = molecular target: T1, Polyamine deacetylase HDAC10 (Homo sapiens, UniProt Q969S8); test: Inhibition of dye-labeled tracer binding to HDAC10 (unknown origin) transfected in human HeLa cells measured after 2 hrs by nano-luciferase reporter gene-based BRET assay; assay type: cell-based
T1 sequence (Q969S8 whole entry): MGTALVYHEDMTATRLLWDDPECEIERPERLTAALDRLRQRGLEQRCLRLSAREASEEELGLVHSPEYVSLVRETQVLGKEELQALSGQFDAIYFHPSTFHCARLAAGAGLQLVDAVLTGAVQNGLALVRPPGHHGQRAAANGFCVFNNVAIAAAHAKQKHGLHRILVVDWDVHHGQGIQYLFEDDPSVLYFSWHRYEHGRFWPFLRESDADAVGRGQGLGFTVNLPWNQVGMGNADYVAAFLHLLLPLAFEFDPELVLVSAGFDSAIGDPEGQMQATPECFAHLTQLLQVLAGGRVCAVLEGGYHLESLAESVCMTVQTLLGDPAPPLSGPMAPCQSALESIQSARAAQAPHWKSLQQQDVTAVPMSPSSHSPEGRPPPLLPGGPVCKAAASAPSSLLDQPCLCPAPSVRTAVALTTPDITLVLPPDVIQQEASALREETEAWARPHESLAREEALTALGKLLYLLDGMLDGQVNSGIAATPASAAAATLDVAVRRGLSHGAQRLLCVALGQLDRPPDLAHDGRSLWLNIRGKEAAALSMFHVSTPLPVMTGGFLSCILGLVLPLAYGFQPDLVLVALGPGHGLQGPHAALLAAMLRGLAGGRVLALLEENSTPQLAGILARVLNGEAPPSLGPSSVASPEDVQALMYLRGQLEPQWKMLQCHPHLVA

[2] = molecular target: T1, Polyamine deacetylase HDAC10; test: Inhibition of tubastatin-Alexa647-tracer binding to recombinant GST-tagged HDAC10 (unknown origin) measured after 1 hr by TR-FRET assay

IC50 [1]: 501 nM | IC50 [2]: 100 nM
SMILES: CCCCN(Cc1ccc(C(=O)NO)cc1)C(=O)Nc1ccccc1 [NEXTURASTAT A]
